The list shows a part of the results, in another mix than the full data. Calls of active or inactive are those of the source. Cut-off read from the data, not from the text of the source: active = activation above about 30% (passing the limit was not always enough); inconclusive = no clear call, values can overlap the other calls.
test: Wnt/beta-catenin pathway activators, primary screen, cell-based, plate reader, single point (AID 743398); details: Wnt/beta-catenin reporter cell assay, activator, at 9.35 µM, active compounds read high;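 note: 0% = neutral control wells and 100% = positive control wells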

| SMILES | activation |
| --- | --- |
| CC(=O)Nc1ccc([As](=O)(O)O)c(O)c1 | inactive: 8.41% |
| CC(=O)Nc1ccc(Oc2c([N+](=O)[O-])cc([N+](=O)[O-])cc2[N+](=O)[O-])cc1 | inactive: -0.666% |
| CCOc1ccc(C2=NCC(CBr)S2)cc1 (stereo unspecified) | inactive: 4.55% |
| CCc1cc(O)c([N+](=O)[O-])c(C)c1[N+](=O)[O-] | inactive: 5.42% |
| CC(C)(C)C(=O)NC(Sc1ccccc1)C(Cl)(Cl)Cl (stereo unspecified) | inactive: -1.05% |
| Cc1ccc(OP(=O)(Nc2ccccn2)Oc2ccc(C)cc2)cc1 | inactive: -0.662% |
| CC(=O)NC(SC(=S)N(CC(C)C)CC(C)C)C(Cl)(Cl)Cl (stereo unspecified) | inactive: 1.64% |
| O=C(OC1CN2CCC1CC2)c1ccccc1 (stereo unspecified) | inactive: 3.92% |
| CC(NC(=O)COC(=O)C(O)(c1ccccc1)c1ccccc1)c1ccccc1 (stereo unspecified) | inactive: -1.36% |
| Cc1ccccc1OP(=O)(Nc1ccccn1)Oc1ccccc1C | inactive: -1.8% |
| O=c1c2cc([N+](=O)[O-])ccc2[nH]c2c([N+](=O)[O-])cc([N+](=O)[O-])cc12 | inactive: -0.71% |
| CN(C)C(=O)Oc1noc2ccccc12 | inactive: -0.409% |
| O=C(NC1CCS(=O)(=O)C1)NP(=S)(Oc1ccccc1)Oc1ccccc1 (stereo unspecified) | inactive: -0.08% |
| CCNC(=S)/N=C(\N)N[N+](=O)[O-] | inactive: -2.43% |
| c1ccc(-c2nn[nH]n2)c(-c2nn[nH]n2)c1 | inactive: -1.7% |
| Cc1ccc(NP(=O)(Oc2cccc(C)c2)Oc2cccc(C)c2)nc1 | inactive: -0.728% |
| O=P1(N(CCCl)CCCl)OCCC2CCCCN21 (stereo unspecified) | inactive: 0.836% |
| CN(C(=O)Cc1ccccc1)C1CC[C@@]2(CCCO2)C[C@@H]1N1CCCC1 (stereo partly specified) | inactive: 2.4% |
| CCN(N=Nc1nonc1N)c1nonc1N | inactive: -3.88% |

| SMILES | activation |
| --- | --- |
| Nc1cccc2ccc([As](=O)(O)O)cc12 | inactive: 0.745% |
| CC(=O)Nc1ccc([As](=O)(O)O)cc1 | inactive: -0.842% |
| O=C(O)c1ccccc1[As](=O)(O)O | inactive: -0.738% |
| CCCC1OP(N)(=O)OCC1CC (stereo unspecified) | inactive: -4.34% |
| O=P(Nc1nc2ccc(Cl)cc2s1)(c1ccccc1)c1ccccc1 | inactive: 2.68% |
| CN(C)P(=O)(N(C)C)n1c(Nc2ccccc2)nnc1-c1ccccc1 | inactive: -0.823% |
| Cc1cc(SC(NC(=O)c2ccc(F)cc2)C(Cl)(Cl)Cl)ncn1 (stereo unspecified) | inactive: 6.35% |
| CCOP(=O)(Nc1ccccc1)OCC | inactive: -2% |
| CN(C(=O)Cc1ccc(Cl)c(Cl)c1)[C@H]1CCCC[C@@H]1N1CCCC1 | inactive: -1.85% |
| Cc1ccc(NP(=O)(Oc2ccccc2F)Oc2ccccc2F)nc1 | inactive: 1.98% |
| CCn1c(=O)n(C2CCN(CC3CCCCCCC3)C[C@H]2CO)c2ccccc21 (stereo partly specified) | inactive: -2.38% |
| Nc1cc(N)c2nonc2c1[N+](=O)[O-] | inactive: -1.37% |
| CC(C)CC(=O)NC(Sc1ccc(Cl)cc1)C(Cl)(Cl)Cl (stereo unspecified) | inactive: -6.01% |
| O=C(NC(Sc1ccncn1)C(Cl)(Cl)Cl)c1ccccc1 (stereo unspecified) | inactive: -0.862% |
| NC(=O)c1cc([N+](=O)[O-])cc([N+](=O)[O-])c1N | inactive: 0.125% |
| CN(C(=O)Cc1ccc(Cl)c(Cl)c1)[C@H]1CCCC[C@H]1N1CCCC1 | inactive: 1.28% |
| Cc1ccc(N/C(=N/P(=O)(N2CCOCC2)N2CCOCC2)N2CCOCC2)cc1 | inactive: -0.478% |
| COc1ccccc1OP(=O)(Nc1ccc(C)cn1)Oc1ccccc1OC | inactive: -1.99% |
| Cc1ccc(OP(=O)(Nc2nccs2)Oc2ccc(C)cc2)cc1 | inactive: 7.06% |

| SMILES | activation |
| --- | --- |
| Clc1ccc(Cl)c(NC2=NCC(CBr)S2)c1 (stereo unspecified) | active: 54.5% |
| Nc1ccc([As](=O)(O)c2ccc(N)cc2)cc1 | inactive: 2.3% |
| C[N+]1=C2C=CC=CC=C2SC12C([N+](=O)[O-])=CC([N+](=O)[O-])=C[C-]2[N+](=O)[O-] (stereo unspecified) | inactive: 4.69% |
| CCN(/C(=N/P(=O)(N1CCOCC1)N1CCOCC1)N1CCOCC1)c1ccc(OC)cc1 | inactive: -0.159% |
| CC(C)c1nc(Nc2ccccc2)n(P(=O)(N(C)C)N(C)C)n1 | inactive: -2.24% |
| CC(C)=N/N=C(\N)N[N+](=O)[O-] | inactive: -2.22% |
| c1cc(-c2nn[nH]n2)ccc1-c1nn[nH]n1 | inactive: -3.2% |
| COc1ccc(C2=NCC(CBr)S2)cc1 (stereo unspecified) | inactive: -0.319% |
| O=[N+]([O-])c1cccc2n[nH]nc12 | inactive: -0.981% |
| Cc1ccc(NP(=O)(Oc2ccccc2)Oc2ccccc2)nc1 | inactive: -2.24% |
| O=[N+]([O-])c1cc([N+](=O)[O-])c(CCNc2ccccc2)c([N+](=O)[O-])c1 | inactive: -1.24% |
| CC(C)(C)C(=O)NC(Sc1ccncn1)C(Cl)(Cl)Cl (stereo unspecified) | inactive: 0.607% |
| O=[N+]([O-])c1ncn(CCn2ncnc2[N+](=O)[O-])n1 | inactive: 16.2% |
| COC(=O)C1(C)COP(=O)(Nc2ccccc2)OC1 (stereo unspecified) | inactive: 11% |
| O=[N+]([O-])c1cccc(NC2=NCC(CBr)S2)c1 (stereo unspecified) | inactive: -3.62% |
| O=C(O)CNc1ccc([As](=O)(O)O)cc1 | inactive: -3.09% |
| O=P1(N(CCCl)CCCl)OCCCS1 (stereo unspecified) | inactive: -3.91% |
| O=C(Nc1cc([As](=O)(O)O)ccc1O)c1ccccc1 | inactive: -1.08% |

Source: PubChem BioAssay AID743398 (Broad Institute, 2014)
